For one substance, clotting time as measured by aPTT results are on record in WO2001004269A1.

Chains of the proteins cited; added tags and fusions are not shown. Residues count along the entry.
UniProt P00451, 20-2351: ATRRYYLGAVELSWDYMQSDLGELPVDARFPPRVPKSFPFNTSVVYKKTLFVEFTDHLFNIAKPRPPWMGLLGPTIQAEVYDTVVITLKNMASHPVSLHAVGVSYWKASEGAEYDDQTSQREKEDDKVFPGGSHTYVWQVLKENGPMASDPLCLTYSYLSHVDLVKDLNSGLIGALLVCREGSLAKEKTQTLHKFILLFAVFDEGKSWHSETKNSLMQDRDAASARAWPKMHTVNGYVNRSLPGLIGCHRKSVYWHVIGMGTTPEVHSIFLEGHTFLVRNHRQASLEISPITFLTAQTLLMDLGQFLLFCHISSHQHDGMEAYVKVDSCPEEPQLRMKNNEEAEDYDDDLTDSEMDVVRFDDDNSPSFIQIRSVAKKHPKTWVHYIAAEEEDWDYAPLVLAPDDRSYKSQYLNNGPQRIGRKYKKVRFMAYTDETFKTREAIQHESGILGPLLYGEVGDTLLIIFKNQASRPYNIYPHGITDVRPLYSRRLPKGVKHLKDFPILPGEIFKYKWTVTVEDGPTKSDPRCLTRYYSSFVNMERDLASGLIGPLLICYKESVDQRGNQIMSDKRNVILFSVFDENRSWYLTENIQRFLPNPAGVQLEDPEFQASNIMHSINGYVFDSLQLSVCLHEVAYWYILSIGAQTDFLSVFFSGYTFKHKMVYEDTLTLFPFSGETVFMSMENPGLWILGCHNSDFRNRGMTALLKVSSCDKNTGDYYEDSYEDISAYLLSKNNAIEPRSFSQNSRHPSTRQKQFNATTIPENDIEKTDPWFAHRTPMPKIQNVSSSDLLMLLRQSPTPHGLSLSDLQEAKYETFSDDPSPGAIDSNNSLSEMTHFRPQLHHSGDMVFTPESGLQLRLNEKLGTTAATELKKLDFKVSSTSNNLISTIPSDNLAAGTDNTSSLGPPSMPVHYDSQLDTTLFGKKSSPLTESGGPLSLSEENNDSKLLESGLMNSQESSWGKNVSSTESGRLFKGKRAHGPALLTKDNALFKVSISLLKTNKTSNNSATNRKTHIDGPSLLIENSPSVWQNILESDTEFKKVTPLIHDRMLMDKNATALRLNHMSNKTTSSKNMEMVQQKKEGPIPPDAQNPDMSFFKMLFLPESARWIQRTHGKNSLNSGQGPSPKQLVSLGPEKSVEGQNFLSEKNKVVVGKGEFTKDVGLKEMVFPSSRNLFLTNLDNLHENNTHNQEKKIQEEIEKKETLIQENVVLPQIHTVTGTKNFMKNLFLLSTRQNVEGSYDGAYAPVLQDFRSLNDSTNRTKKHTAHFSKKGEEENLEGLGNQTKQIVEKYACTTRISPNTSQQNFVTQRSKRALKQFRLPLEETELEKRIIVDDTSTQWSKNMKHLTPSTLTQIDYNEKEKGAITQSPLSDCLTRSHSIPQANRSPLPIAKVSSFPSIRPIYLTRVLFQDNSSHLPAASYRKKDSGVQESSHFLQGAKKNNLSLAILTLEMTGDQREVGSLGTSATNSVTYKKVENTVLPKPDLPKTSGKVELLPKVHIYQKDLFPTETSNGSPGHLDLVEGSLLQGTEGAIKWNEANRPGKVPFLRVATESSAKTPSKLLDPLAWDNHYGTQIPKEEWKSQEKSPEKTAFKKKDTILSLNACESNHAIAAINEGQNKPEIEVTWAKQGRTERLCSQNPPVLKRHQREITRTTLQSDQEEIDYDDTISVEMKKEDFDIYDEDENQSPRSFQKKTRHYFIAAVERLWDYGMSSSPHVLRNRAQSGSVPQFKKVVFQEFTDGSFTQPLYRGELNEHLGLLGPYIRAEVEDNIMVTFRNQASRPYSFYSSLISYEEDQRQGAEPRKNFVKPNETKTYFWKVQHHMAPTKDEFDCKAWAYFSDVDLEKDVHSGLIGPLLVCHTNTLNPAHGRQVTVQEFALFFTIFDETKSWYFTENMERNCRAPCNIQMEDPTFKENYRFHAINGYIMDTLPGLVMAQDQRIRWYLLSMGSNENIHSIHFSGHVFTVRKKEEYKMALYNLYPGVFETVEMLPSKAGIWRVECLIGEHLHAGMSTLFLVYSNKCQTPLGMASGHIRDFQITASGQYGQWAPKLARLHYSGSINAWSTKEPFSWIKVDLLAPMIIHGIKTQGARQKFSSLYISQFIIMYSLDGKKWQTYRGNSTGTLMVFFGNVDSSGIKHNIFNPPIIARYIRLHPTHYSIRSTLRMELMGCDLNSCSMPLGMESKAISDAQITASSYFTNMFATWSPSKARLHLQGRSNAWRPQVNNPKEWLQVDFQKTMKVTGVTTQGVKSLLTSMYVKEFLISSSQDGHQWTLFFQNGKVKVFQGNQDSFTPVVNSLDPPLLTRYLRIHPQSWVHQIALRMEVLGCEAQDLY

The assay has as its target factor VIII of a pool of normal plasma (human) (UniProt P00451). Kind of assay: cell-based or functional assay.

As for human monoclonal antibody BO2C11, the clotting time as measured by aPTT was determined as 110 s.
